Chains of the proteins cited; added tags and fusions are not shown. Residues count along the entry.
UniProt Q9UM73, 19-1620: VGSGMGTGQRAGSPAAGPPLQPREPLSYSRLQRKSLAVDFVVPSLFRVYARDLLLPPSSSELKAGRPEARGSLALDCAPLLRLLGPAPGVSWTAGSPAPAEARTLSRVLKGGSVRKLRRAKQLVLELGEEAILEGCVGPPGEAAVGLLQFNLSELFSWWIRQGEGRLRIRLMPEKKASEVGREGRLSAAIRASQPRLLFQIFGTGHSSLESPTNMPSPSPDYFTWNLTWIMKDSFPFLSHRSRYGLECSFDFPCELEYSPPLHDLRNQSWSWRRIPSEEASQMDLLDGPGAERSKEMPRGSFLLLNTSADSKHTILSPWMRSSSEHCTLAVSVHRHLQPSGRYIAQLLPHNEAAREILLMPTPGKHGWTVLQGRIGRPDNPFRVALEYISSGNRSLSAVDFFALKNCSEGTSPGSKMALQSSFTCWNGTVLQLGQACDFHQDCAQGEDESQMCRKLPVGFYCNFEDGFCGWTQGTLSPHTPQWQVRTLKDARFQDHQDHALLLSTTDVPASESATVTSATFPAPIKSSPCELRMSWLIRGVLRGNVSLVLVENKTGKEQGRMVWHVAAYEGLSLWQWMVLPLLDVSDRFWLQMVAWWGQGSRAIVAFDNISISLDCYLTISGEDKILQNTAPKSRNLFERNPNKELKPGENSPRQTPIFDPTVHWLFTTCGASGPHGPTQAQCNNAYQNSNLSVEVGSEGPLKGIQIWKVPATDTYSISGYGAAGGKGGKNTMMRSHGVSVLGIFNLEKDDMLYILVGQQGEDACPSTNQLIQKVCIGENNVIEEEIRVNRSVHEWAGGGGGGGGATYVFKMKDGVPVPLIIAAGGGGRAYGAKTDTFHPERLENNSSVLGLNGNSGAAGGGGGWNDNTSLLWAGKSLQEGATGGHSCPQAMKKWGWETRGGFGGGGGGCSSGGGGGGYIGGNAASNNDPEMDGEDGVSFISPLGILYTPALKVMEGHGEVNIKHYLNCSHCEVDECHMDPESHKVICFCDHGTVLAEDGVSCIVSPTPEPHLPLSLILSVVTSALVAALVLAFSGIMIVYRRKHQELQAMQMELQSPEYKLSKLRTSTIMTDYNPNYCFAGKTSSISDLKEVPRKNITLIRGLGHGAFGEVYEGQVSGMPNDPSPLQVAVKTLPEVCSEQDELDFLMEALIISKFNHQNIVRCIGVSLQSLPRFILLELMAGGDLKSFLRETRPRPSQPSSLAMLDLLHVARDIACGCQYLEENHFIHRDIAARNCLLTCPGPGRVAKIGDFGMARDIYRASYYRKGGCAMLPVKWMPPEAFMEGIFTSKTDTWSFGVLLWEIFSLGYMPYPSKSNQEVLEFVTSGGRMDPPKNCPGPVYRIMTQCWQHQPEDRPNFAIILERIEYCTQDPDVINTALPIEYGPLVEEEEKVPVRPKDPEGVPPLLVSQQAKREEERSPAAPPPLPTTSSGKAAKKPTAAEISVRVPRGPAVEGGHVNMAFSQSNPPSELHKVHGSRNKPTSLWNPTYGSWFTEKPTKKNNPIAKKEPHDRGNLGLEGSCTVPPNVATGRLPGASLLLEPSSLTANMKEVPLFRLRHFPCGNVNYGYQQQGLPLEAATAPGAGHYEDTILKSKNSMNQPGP

These compounds were tested against ALK WT (Homo sapiens (Human), UniProt Q9UM73). Conditions: read-out: ALK WT (IC50 μM); ALK enzyme, HTRF.
COc1cc(C(C)(C)NC=O)c(C)cc1Nc1ncc(Cl)c(Nc2ccccc2S(=O)(=O)C(C)C)n1 [Example 61, N-(2-(4-((5-chloro-4-((2-(isopropylsulfonyl)phenyl)amino)pyrimidine-2-yl)amino)-5-methoxy-2-methylphenyl)propane-2-yl)formamide] gave an IC50 of 0.0021 µM. COc1cc(CNC=O)c(C)cc1Nc1ncc(Cl)c(Nc2ccccc2S(=O)(=O)C(C)C)n1 [Example 71, N-(4-((5-chloro-4-((2-(isopropylsulfonyl)phenyl)amino)pyrimidine-2-yl)amino)-5-methoxy-2-methylbenzyl)formamide] gave an IC50 of 0.00472 µM. For COc1cc(C(C)(C)C#N)c(C)cc1Nc1ncc(Cl)c(Nc2ccccc2S(=O)(=O)C(C)C)n1 [Example 54, 2-(4-((5-chloro-4-((2-(isopropylsulfonyl)phenyl)amino)pyrimidine-2-yl)amino)-5-methoxy-2-methylphenyl)-2-methylpropanenitrile], the IC50 was 0.2 µM. In the case of COc1cc(C(C)(C)N)c(C)cc1Nc1ncc(Cl)c(Nc2ccccc2S(=O)(=O)C(C)C)n1 [Example 57, N2-(4-(2-aminopropane-2-yl)-2-methoxy-5-methylphenyl)-5-chloro-N4-(2-(isopropylsulfonyl)phenyl)pyrimidine-2,4-diamine], the IC50 is reported as 0.0015 µM.
